This is an account of results in article PMC8344253, “Identifying requirements for RSK2 specific inhibitors” (Journal of Enzyme Inhibition and Medicinal Chemistry, 2021).

By UniProt entry, the sequences of proteins in these tests, tags left out.
UniProt P51812, whole entry: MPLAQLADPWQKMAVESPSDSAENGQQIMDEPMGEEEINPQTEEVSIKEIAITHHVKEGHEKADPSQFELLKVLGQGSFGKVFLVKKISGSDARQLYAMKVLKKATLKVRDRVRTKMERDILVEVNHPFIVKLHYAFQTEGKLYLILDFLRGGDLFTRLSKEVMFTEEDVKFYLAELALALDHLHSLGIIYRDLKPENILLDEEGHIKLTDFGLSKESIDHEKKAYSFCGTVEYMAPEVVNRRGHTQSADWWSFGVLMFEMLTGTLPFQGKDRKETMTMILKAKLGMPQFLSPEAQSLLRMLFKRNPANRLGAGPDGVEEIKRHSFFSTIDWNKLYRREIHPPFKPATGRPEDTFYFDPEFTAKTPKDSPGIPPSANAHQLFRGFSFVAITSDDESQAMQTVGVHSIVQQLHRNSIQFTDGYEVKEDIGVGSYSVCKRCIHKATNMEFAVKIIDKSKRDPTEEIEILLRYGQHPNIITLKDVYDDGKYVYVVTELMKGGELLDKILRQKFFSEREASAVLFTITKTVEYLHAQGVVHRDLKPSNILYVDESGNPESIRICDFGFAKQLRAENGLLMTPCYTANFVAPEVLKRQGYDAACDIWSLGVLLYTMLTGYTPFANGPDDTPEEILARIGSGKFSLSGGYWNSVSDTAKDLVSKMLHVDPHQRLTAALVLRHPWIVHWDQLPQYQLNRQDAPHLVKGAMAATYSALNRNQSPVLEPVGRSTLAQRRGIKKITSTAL

This assay addresses RSK2 (Homo sapiens, UniProt P51812). Put plainly: FRET kinase binding assay (LanthaScreen Eu Kinase Binding Assay), full-length RSK2. As to conditions: for % Uninhibited kinase at 30 μM: 30 μM inhibitor. On the procedure: Normalised EMR was calculated in MATLAB (Mathworks).
Hill slope and IC50 were unconstrained. […] Statistical significance is considered using α = 0.01.

As for `CC(C)CCN1c2nc(Nc3cc(F)c(O)c(F)c3)ncc2N(C)C(=O)C1C` (stereo not drawn) [BI-D1870, reference compound], the “Time dependence of efficacy to inhibit RSK2” value (2 h vs 5 min incubation) is given as “no time dependence”. The “% Uninhibited kinase at 30 μM” value by setting is: (RSK2, 5 min incubation) 1.1%; (RSK2, 2 h incubation) 1.2%.
